# From PubChem BioAssay
# Most compounds without a hit are left out; they make up all but 16% or so of the library.
# uPA generation: inhibitors of cell surface uPA generation | cell surface uPA generation assay, qHTS | Potency, µM (doses to about 38.3 µM), for inactives: at the top dose activity change, negative = inhibition, hits mostly inhibitors | 330,000 compounds, 0.31% hits; active = well fitted inhibition curve with a large enough effect; inconclusive = small, poorly fitted or top-dose-only effect; inactive = no such curve, though single readings can be large or run the other way; tested in mouse RAW 264.7 cells; note: potency is the fitted concentration of half-maximal effect; % is set by controls: 0 for no effect and ±100 for the full control effect; nearly all actives have a fitted effect of over 55% in size
# DT40 TDP1 no CPT: qHTS for Inhibitors of human tyrosyl-DNA phosphodiesterase 1 (TDP1): qHTS in cells in absence of CPT | 420,000 compounds, 15% hits | Potency, µM (doses to about 46.2 µM), inactives show at the top dose activity change, negative = growth inhibition, hits mostly inhibitors | DT40 Tdp1-/- hTDP1 cells, no CPT, ATP luminescence, 48 h; note: potency is the fitted concentration of half-maximal effect; % is set by controls: 0 for no effect and ±100 for the full control effect; nearly all actives have a fitted effect of over 55% in size
#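 Growth of hTDP1-complemented DT40 Tdp1-knockout cells is measured by ATP luminescence after at least 48 hr compound exposure at 37 °C, with DMSO substituting for the 20 nM CPT used in the parallel screen.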
# TDP1 block: TDP1 (human) enzyme inhibition; recombinant TDP1, AlphaScreen DNA substrate cleavage; Potency, µM (series often up to 130 µM), without a hit: at the top dose activity change, negative = inhibition, actives largely listed as inhibitors; 350,000 compounds, 0.28% hits; note: potency is the fitted concentration of half-maximal effect; % is set by controls: 0 for no effect and ±100 for the full control effect; nearly all actives have a fitted effect of over 40% in size
#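 E. coli-derived human Tdp1, 1 nM final. Cpd preinc 15 min RT; substrate 15 nM final, 5 min RT; AS bead mix 10 ug/ml final, 10 min RT. Signal loss = tyrosine-FITC cleavage. No-enzyme wells = max signal.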
# miR-21 reporter: miR-21 reporter, rising signal; HeLa miR-21 FLuc reporter, luciferase, 48 h; Potency, µM (top dose mostly 38.3 µM), without a hit: at the top dose reporter change, positive = more light; 340,000 tested, under 10 active; active = well fitted rising curve with a large enough effect; inconclusive = small, poorly fitted or top-dose-only effect; inactive = no such curve, though single readings can be large or run the other way;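 note: % of control where 0% means no effect; miR-21 action dims this reporter so a rising signal means less miR-21 action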
#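 HeLa cells endogenously expressing miR-21, stably carrying CMV-driven firefly luciferase with a downstream miR-21 binding site, 2000 cells/well. Titrations up to approximately 40 uM, 48 hours; luciferase luminescence read.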
# TDP1 cell CPT: DT40-hTDP1 cell growth loss with CPT. AID 686979. chicken DT40 Tdp1-/-;hTDP1 cells + 20 nM CPT, ATP luminescence, 48 h. Potency, µM (series often up to 46.2 µM), without a hit: at the top dose activity change, negative = growth inhibition, hits mostly inhibitors. 420,000 compounds, 12% hits; note: potency is the fitted concentration of half-maximal effect; % is set by controls: 0 for no effect and ±100 for the full control effect; nearly all actives have a fitted effect of over 55% in size
#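 Cell growth measured by CellTiter-Glo luminescence after a minimum 48 h, 37 C compound exposure with 20 nM CPT in Tdp1-knockout DT40 cells stably expressing hTDP1, seeded 400/well; qHTS titration format.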
# * = called active by the depositor; ? = inconclusive; . = no result; [ ] = another dose, or the depositor's remark. Unless noted, calls come from the whole dose curve; as a rule, active = well fitted curve in the direction sought with a large enough effect; inconclusive = small, poorly fitted or top-dose-only effect, or another doubt; inactive = no such curve, though single readings can be large; an effect the other way counts as inactive or inconclusive.
molecule	uPA generation	DT40 TDP1 no CPT	miR-21 reporter	TDP1 block	TDP1 cell CPT
Cc1ccc(Nc2nc(NCC3CCCO3)nc(N)c2[N+](=O)[O-])cc1C (stereo not drawn)	1.0%	-12.3%	-11.1%	0.0%	-4.7%
CCc1ccccc1N(CC(=O)O)S(C)(=O)=O	5.3%	1.2%	2.0%	8.7%	3.2%
CCc1nc(C)cn1S(=O)(=O)c1cc(C)c(OC)c(C)c1C	.	10.3µM*	14.2%	1.4%	8.2µM*
CCc1nc(C)cn1S(=O)(=O)c1ccc(Cl)c(Cl)c1Cl	-3.9%	20.6µM*	5.7%	-2.6%	18.4µM*
CCc1nc(C)cn1S(=O)(=O)c1cc(C)c(OC)cc1C	7.1%	?	-1.9%	1.3%	-27.7%
CC(=O)Cc1nsc(NC(=O)c2ccc(-c3cc(C(F)(F)F)ccc3Cl)o2)n1	?	13µM*	19.8%	1.1%	20.6µM*
O=C(NC1CC1)c1ccc(CSCc2cccc(F)c2)o1	-16.7%	?	-22.4%	1.2%	?
CCCCSCCCNC(=O)c1c[nH]c2ccc(S(=O)(=O)Nc3cccc(OC)c3)cc2c1=O	.	20.6µM*	13.3%	-3.8%	20.6µM*
COc1ccccc1CNC(=O)c1c[nH]c2ccc(S(=O)(=O)Nc3cc(C)cc(C)c3)cc2c1=O	.	20.6µM*	17.7%	0.0%	?
CCN(CC)C(=O)c1c[nH]c2ccc(S(=O)(=O)Nc3cc(C)cc(C)c3)cc2c1=O	4.0%	-13.2%	0.4%	0.0%	-16.5%
COc1ccc(/C=N/NC(=O)CN2CCCCCCC2)c(C)c1C	3.7%	-5.7%	-3.2%	.	-12.8%
C[N+]1(CC(=O)c2ccc(Cl)cc2)CCOCC1	.	-10.6%	.	.	3.8%
COc1ccc(C2(C(=O)NCC3Cc4cccc(-c5cccnc5)c4O3)CCCC2)cc1 (stereo not drawn)	.	?	.	.	-6.5%[9.04 µM]
COC(=O)/C=C/C(=O)N1CCN(c2ccccc2)CC1	-11.5%	2.9%	9.4%	3.1%	9.8%
COC(=O)/C=C/C(=O)N1CCN(c2ccccc2C)CC1	11.2µM*	16.4µM*	20.8%	8.2%	?
Cc1ccccc1N1CCN(C(=O)c2ccccc2NC(=O)/C=C\C(=O)O)CC1	-0.4%	?	-0.3%	4.8%	?
Cc1ccccc1N1CCN(c2ccccc2NC(=O)/C=C\C(=O)O)CC1	-10.6%	?	.	.	16.4µM*
CCc1nnc2c(NCc3cccc(OC)c3)nc3ccccc3n12	.	?	0.1%	0.0%[12.3 µM]	-26.3%
COc1ccc(-c2nc(CN3CCC(C(=O)NC4CC4)CC3)c(C)o2)cc1OC	24.5%	22.7%	0.6%	5.9%	6.8%
CCN(CC)Cc1nc2c(c(=O)[nH]1)C1(CCCC1)Cc1ccccc1-2	.	?	-4.2%	5.3%	20.6µM*
COCCOC(=O)N1CCCCC1c1cc(C(=O)Nc2cccc3c2CCCC3)no1 (stereo not drawn)	.	4.61µM*	.	.	3.66µM*
CCCNC(=O)c1cc(C2CCCCN2C(=O)OCCF)on1 (stereo not drawn)	.	-2.3%	.	.	-3.4%
Cn1cnc(S(=O)(=O)N2CCCCC2c2cc(C(=O)Nc3cccc4c3CCCC4)no2)c1 (stereo not drawn)	.	13µM*	.	.	20.6µM*
O=C(Nc1ccccc1)c1cc(C2CCCCN2C(=O)OCCF)on1 (stereo not drawn)	.	?	.	.	-36.4%
O=C(Nc1cccc2c1CCCC2)c1cc(C2CCCCN2C(=O)OCCF)on1 (stereo not drawn)	.	9.2µM*	.	.	9.2µM*

# Record cards, as listed above:
# COc1ccccc1CNC(=O)c1c[nH]c2ccc(S(=O)(=O)Nc3cc(C)cc(C)c3)cc2c1=O reads uPA generation: .; DT40 TDP1 no CPT: 20.6µM*; miR-21 reporter: 17.7%; TDP1 block: 0.0%; TDP1 cell CPT: ?
# CCc1nnc2c(NCc3cccc(OC)c3)nc3ccccc3n12 reads uPA generation: .; DT40 TDP1 no CPT: ?; miR-21 reporter: 0.1%; TDP1 block: 0.0%[12.3 µM]; TDP1 cell CPT: -26.3%
# COC(=O)/C=C/C(=O)N1CCN(c2ccccc2)CC1 reads uPA generation: -11.5%; DT40 TDP1 no CPT: 2.9%; miR-21 reporter: 9.4%; TDP1 block: 3.1%; TDP1 cell CPT: 9.8%

# (list continues)
molecule	uPA generation	DT40 TDP1 no CPT	miR-21 reporter	TDP1 block	TDP1 cell CPT
COC(=O)c1ccc(-c2sc3nc(N4CCOCC4)c4c(c3c2N)CCCC4)o1	5.4%	25.9µM*	-10.8%	-4.7%	18.4µM*
COC(=O)c1ccc(CSc2ncnc3c2sc2nc(N4CCOCC4)c4c(c23)CCCC4)o1	4.6%	18.4µM*	.	.	?
O=S(=O)(c1ccc(Br)cc1)c1nc(-c2ccco2)oc1SCc1ccccc1F	.	?	2.5%	0.0%	?
CCOC(=O)c1ccc(CC(=O)c2ccc(O)cc2O)o1	6.4%	13µM*	17.5%	-2.3%	?
C=CCN(CC=C)C(=O)Cc1ccc(F)cc1	-2.0%	-17.9%	-1.9%	6.5%	12.5%
Cc1ccc(S(=O)(=O)N2CCc3cc4c(cc3C2C)OCCCO4)cc1 (stereo not drawn)	-4.5%	?	3.3%	-2.1%	18.4µM*
COc1ccc(S(=O)(=O)N2CCc3cc4c(cc3C2C)OCCCO4)cc1 (stereo not drawn)	-2.2%	?	6.7%	4.9%	16.4µM*
CC1c2cc3c(cc2CCN1S(=O)(=O)c1ccccc1)OCCCO3 (stereo not drawn)	-2.4%	-20.1%	2.2%	0.3%	?
CCOc1ccc2[nH]c(C(=O)N/N=C/c3cc(OC)c(OC)c(OC)c3)cc2c1	4.3%	16.4µM*	-0.1%	.	?
COc1cc(/C=N/NC(=O)c2cc3ccccc3[nH]2)ccc1O	4.2%	-1.6%	17.2%	.	4.2%
COc1ccc(OC)c(/C=N/NC(=O)c2cc3c(OC)cc(OC)cc3[nH]2)c1	7.9%	?	26.2%	6.8%	?
COc1cccc(/C=N/NC(=O)c2cc3c(OC)c(OC)ccc3[nH]2)c1OC	?	2.59µM*	22.6%	-1.2%	2.31µM*
COc1cccc(/C=N/NC(=O)c2cc3c(OC)cccc3[nH]2)c1O	-10.1%	6.51µM*	22.0%	0.0%	5.17µM*
CCOc1ccc(/C=N/NC(=O)c2cc3c(OC)cccc3[nH]2)cc1	-6.5%	23.1µM*	25.7%	.	18.4µM*
COc1ccc(S(=O)(=O)N2CCOCC2)cc1NC(=O)CCNC(=O)c1ccc(Br)cc1	5.2%	?	.	0.8%	?
COc1cc(-c2c(OC)cccc2OC)cc2c1OCCN(C(=O)CCC(=O)c1ccc(F)cc1)C2	.	-7.3%	.	.	-90.2%[9.04 µM]
COc1ccc(S(=O)(=O)N[C@H](C(=O)O)C(C)C)cc1	2.3%	4.5%	-1.2%	3.8%	0.5%
CCCn1nc(Oc2nc(NCC)nc(NC(C)C)n2)ccc1=O	-4.4%	-17.3%	-14.1%	3.8%	?
COc1ccc(OC)c(/C=N/NC(=O)c2cc3c(OC)cccc3[nH]2)c1	3.1%	?	9.3%	.	-21.8%
COc1cccc(/C=N/NC(=O)c2cc3c(OC)cccc3[nH]2)c1OC	0.3%	7.31µM*	-2.7%	2.3%	-19.5%
COc1ccccc1/C=N/NC(=O)c1cc2c(OC)c(OC)ccc2[nH]1	?	3.26µM*	21.7%	.	4.11µM*
COc1ccc(CNC(=O)Cn2c(=O)cc(C)c3c(C)nn(-c4cccc(Cl)c4C)c32)cc1	.	?	0.5%	1.9%	?
OCCC1CN(Cc2cnn(-c3ccccc3Cl)c2)CCN1Cc1ccsc1 (stereo not drawn)	-13.3%	-9.8%	-4.7%	5.1%	3.4%
